{"source": "patent US5064826A", "about": "“Novel triazolo-pyrimidine derivatives” (priority 1989, dated 1991)", "assay": "Analgesic activity in Writhing test (W.t.) after p.o. administration", "format": "in vivo", "settings": "TI = therapeutic index = LD50 (so in the source)"}
{"smiles": "CC(=O)Nc1ccc(O)cc1", "note": "[paracetamol, p(acetylamino)-phenol, reference compound]", "values": [{"measurement": "TI (therapeutic index), W.t.", "result": 2.8}]}
